Source: patent EP4847022A1, “AGENT FOR PREVENTING OR AMELIORATING METABOLIC DYSFUNCTION-ASSOCIATED STEATOTIC LIVER DISEASES” (dated 2026)

Legend:
[1] = system: methionine- and choline-deficient diet (MCD diet) model; assay: Therapeutic effect on MCD diet model (diet-induced MASLD model mice); details: MCD+MA5 group vs MCD group, MA5 0.012% in diet, n=2 per group
Method: In order to confirm that the present compound is effective for the treatment of MASLD, analyses were performed using a methionine- and choline-deficient diet (MCD diet) model, that is, diet-induced MASLD model mice.
After 54-week-old C57BL/6J mice (obtained from Japan SLC, Inc.) (male, n=6) were acclimatized for one week, they were randomly divided into three intervention groups (control group [n=2], MCD group [n=2], and MCD+MA5 group [n=2]) and subjected to intervention until the individual mice died. The control group was fed a standard diet (CE-2, manufactured by CLEA Japan, Inc.) and water, the MCD group was fed a methionine- and choline-deficient diet (manufactured by Research Diets, Inc., A02082002BRM) and water, and the MCD+MA5 group was fed a diet obtained by mixing the above methionine- and choline-deficient diet with MA5 in a mass ratio of 0.012%, and water. During the period until the individual mice died, the mice were weighed and the various diets and water were replenished once a week.

[2] = system: diet- and drug-induced MASH model mice with advanced fibrosis; assay: Therapeutic effect on diet- and drug-induced MASH model mice with advanced fibrosis; details: advanced fibrosis+MA5 group vs advanced fibrosis group (FFC+CCl4), MA5 25 mg/kg orally three times a week, 6 weeks, n=1 per group
Method: In order to confirm that the present compound is effective for the treatment of MASLD, analyses were performed using diet- and drug-induced MASH model mice with advanced fibrosis.
After 12-week-old C57BL/6J mice (obtained from Japan SLC, Inc.) (male, n=2) were acclimatized for one week, they were randomly divided into two intervention groups (advanced fibrosis group [n=1] and advanced fibrosis+MA5 group [n=1]) and subjected to intervention for 6 weeks. In order to create MASLD model mice with advanced fibrosis for these two intervention groups, the mice were fed a high-fat, high-cholesterol diet (Western Diet powder [manufactured by Research Diets, Inc., D12079BM]) and high-glucose, high-fructose water (18.9 g D-glucose/L, 23.1 g D-fructose/L), and carbon tetrachloride, which is a drug that induces liver damage and liver fibrosis, was continuously administered intraperitoneally. Further, the advanced fibrosis group was orally administered with DMSO three times a week using a feeding tube, and the advanced fibrosis+MA5 group was orally administered with MA5 (25 mg/kg) three times a week using a feeding tube. The diet and water were replenished once a week. […] After plasma separation, the blood samples were measured for blood AST activity and blood ALT activity using Spotchem II Kenshin-2 (manufactured by ARKRAY, Inc.). […]

[3] = system: high-fat, methionine-restricted, tyrosine-deficient diet (HF-MRTD diet) model; assay: Therapeutic effect on HF-MRTD diet model (diet-induced MASLD model mice); details: HF-MRTD+MA5 group vs HF-MRTD group, MA5 0.012% in diet
Method: In order to confirm that the present compound is effective for the treatment of MASLD, analyses were performed using a high-fat, methionine-restricted, tyrosine-deficient diet (HF-MRTD diet) model, that is, diet-induced MASLD model mice.
After 6-week-old C57BL/6J mice (obtained from Japan SLC, Inc.) (male, n=15) were acclimatized for one week, they were randomly divided into three intervention groups (control group [n=5], HF-MRTD group [n=5], and HF-MRTD+MA5 group [n=5]) and subjected to intervention for 22 weeks. The control group was fed a standard diet (CE-2, manufactured by CLEA Japan, Inc.) and water, the HF-MRTD group was fed a powdered MRTD diet (a diet containing 60% fat by calorie and 0.2% methionine by mass, prepared according to the method described in the document "Hepatology. 2021 Sep;74(3):1271-1286.") and high-glucose, high-fructose water (18.9 g D-glucose/L, 23.1 g D-fructose/L), and the HF-MRTD+MA5 group was fed a diet obtained by mixing the above powdered MRTD diet with MA5 in a mass ratio of 0.012%, and the above high-glucose, high-fructose water. The various diets and water were replenished once a week. After 13 weeks of intervention (i.e., at 19 weeks of age), the mice in each group were anesthetized, and approximately 200 µL of blood samples were collected from the orbital venous plexus. After 22 weeks of intervention (i.e., at 28 weeks of age), the mice were euthanized after 4 hours of fasting, and blood samples and liver tissue were rapidly collected. After plasma separation, the blood samples were measured for blood AST activity and blood ALT activity using Spotchem II Kenshin-2 (manufactured by ARKRAY, Inc.). Based on the collected liver tissue, formalin-fixed, paraffin-embedded specimens were prepared and subjected to HE staining, and steatosis levels in liver tissue were measured using an optical microscope based on NAS. Further, Masson's trichrome staining was performed, and fibrosis levels in the liver tissue were measured using an optical microscope according to the method described in the document "Hepatology. 2005 Jun;41(6):1313-21."

[4] = system: high-fructose, high-saturated fatty acid, high-cholesterol diet (FFC diet) model; assay: Therapeutic effect on FFC diet model (diet-induced MASH model mice); details: FFC+MA5 group vs FFC group
Method: In order to confirm that the present compound is effective for the treatment of MASLD, analyses were performed using a high-fructose, high-saturated fatty acid, high-cholesterol diet (FFC diet) model, that is, diet-induced MASH model mise.
After 49-week-old C57BL/6J mice (obtained from Japan SLC, Inc.) (male, n=16) and 50-week-old C57BL/6J mice (obtained from CLEA Japan, Inc.) (male, n=10) were acclimatized for one week, they were randomly divided into three intervention groups (control group [n=6], FFC group [n=10], and FFC+MA5 group [n=10]) and subjected to intervention for 25 weeks. The control group was fed a standard diet (CE-2, manufactured by CLEA Japan, Inc.) and water, the FFC group was fed a high-fat, high-cholesterol diet (Western Diet powder [manufactured by Research Diets, Inc., D12079BM]) and high-glucose, high-fructose water (18.9 g D-glucose/L, 23.1 g D-fructose/L), and the FFC+MA5 group was fed a diet obtained by mixing the above high-fat, high-cholesterol diet with MA5 in a mass ratio of 0.012% (equivalent to approximately 5 mg/kg/day of MA5 when converted to a human dosage based on the conversion factor per body surface area) and the above high-glucose, high-fructose water. The mice were weighed and the various diets and water were replenished once a week. After 15 weeks of intervention (i.e., at 64 to 65 weeks of age), the mice in each group were anesthetized, and approximately 200 µL of blood samples were collected from the orbital venous plexus. After 25 weeks of intervention (i.e., at 74 to 75 weeks of age), the mice were euthanized after 4 hours of fasting, and blood samples and liver tissue were rapidly collected. After plasma separation, the blood samples were measured for blood AST activity and blood ALT activity using Spotchem II Kenshin-2 (manufactured by ARKRAY, Inc.). Based on the collected liver tissue, formalin-fixed, paraffin-embedded specimens were prepared and subjected to HE staining, and inflammation levels in the liver tissue were measured using an optical microscope based on the NAFLD activity score (NAS). Further, Masson's trichrome staining was performed, and fibrosis levels in the liver tissue were measured using an optical microscope according to the method described in the document "Hepatology. 2005 Jun;41(6):1313-21."

`O=C(CC(C(=O)O)c1c[nH]c2ccccc12)c1ccc(F)cc1F` (stereo not shown) was tested, and the “mouse lifespan (survival rate)” value ([1]; Figure 5B) was “an extension of the shortened mouse lifespan”, the mouse body weight ([1]; until the individual mice died, Figure 5A) was “an increase in the decreased mouse body weight” and the “blood AST activity” value ([2]; Figure 6A) was “reductions in the increased blood AST activity”. For the same compound, the “blood ALT activity” value ([2]; Figure 6B) was “reductions”, the “steatosis levels in liver tissue” value ([3]; 22 weeks, HE staining, NAS, Figure 4B) was “a decrease in the increased steatosis level” and the “fibrosis levels in the liver tissue” value ([3]; 22 weeks, Masson's trichrome staining, Figures 4A and 4C) was “a significant decrease in the increased fibrosis level”. The “blood AST activity” value ([3]; after 22 weeks of intervention (Figure 3B), effects maintained over at least 13 to 22 weeks) was “a reduction in the increased blood AST activity”, the “blood ALT activity” value ([3]; after 22 weeks of intervention (Figure 3D), effects maintained over at least 13 to 22 weeks) was “a significant reduction in the increased blood ALT activity” and the “inflammation levels in the liver tissue” value ([4]; MA5 0.012% in diet, 25 weeks, HE staining, NAFLD activity score (NAS), Figure 2B) was “significant decreases in the increased inflammation”. For the same compound, the “fibrosis levels in the liver tissue” value ([4]; MA5 0.012% in diet, 25 weeks, Masson's trichrome staining, Figure 2C) was “significant decreases”, the “blood AST activity” value ([4]; MA5 0.012% in diet, after 25 weeks of intervention (Figure 1C), effects maintained over at least 15 to 25 weeks) was “a significant reduction in the increased blood AST activity” and the “blood ALT activity” value ([4]; MA5 0.012% in diet, after 25 weeks of intervention (Figure 1E), effects maintained over at least 15 to 25 weeks) was “a significant reduction”. The mouse body weight ([4]; MA5 mixed in diet at mass ratio 0.012%, intervention for 25 weeks, Figure 1A) was “a reduction in the increased body weight”.
